These are literature values, as cited in patent US20250127752A1, “REDUCED REBOUND EFFECTS IN SUBJECTS TREATED FOR OVERWEIGHT OR OBESITY” (Empros Pharma AB, priority 2021, published 2025).

Each structure is given as a SMILES string. Where two headings read alike, the source gives them in different places. Bounds are passed on as bounds.

The conditions of the series: oral, conventional dosage form, cited from earlier work.

With `C[C@H]1O[C@H](O[C@H]2[C@H](O)[C@@H](O)[C@@H](O[C@H]3[C@H](O)[C@@H](O)C(O)O[C@@H]3CO)O[C@@H]2CO)[C@H](O)[C@@H](O)[C@@H]1N[C@H]1C=C(CO)[C@@H](O)[C@H](O)[C@H]1O` (stereo partly drawn) [acarbose, O-4,6-Dideoxy-4-[[(1S,4R,5S,6S)-4,5,6-trihydroxy-3-(hydroxymethyl)cyclohex-2-enyl]amino]-α-D-glucopyranosyl-(1→4)-O-α-D-gluco-pyranosyl-(1→4)-D-glucopyranose], the “Fraction of the dose absorbed” value is “less than 5%”. Moreover, the “Fraction of the dose absorbed” value (listed as Acarbose) was < 5%.
